Columns and labels:
Settings in all cases: Swiss albino, 5 mg/kg
Mus musculus [1] = species on record: Mus musculus
Mus musculus [2] = species on record: Mus musculus; remark: listed apart in the source
Mus musculus [3] = species on record: Mus musculus; remark: listed apart in the source
Mus musculus [4] = species on record: Mus musculus; remark: listed apart in the source
Mus musculus [5] = species on record: Mus musculus; remark: listed apart in the source
Mus musculus [6] = species on record: Mus musculus; remark: listed apart in the source
Mus musculus [7] = species on record: Mus musculus; remark: listed apart in the source
Mus musculus [8] = species on record: Mus musculus; remark: listed apart in the source
Mus musculus [9] = species on record: Mus musculus; remark: listed apart in the source
Mus musculus [10] = species on record: Mus musculus; remark: listed apart in the source
Mus musculus [11] = species on record: Mus musculus; remark: listed apart in the source

Structure (SMILES): Br.CCCN(CCC)C1CCc2cccc(O)c2C1 (stereo unspecified)
- deltaT (Mus musculus [1]): -0.1 °C
- deltaT (Mus musculus [2]): -0.5 °C
- deltaT (Mus musculus [3]): -0.5 °C
- deltaT (Mus musculus [4]): -0.2 °C
- deltaT (Mus musculus [5]): -1 °C
- deltaT (Mus musculus [6]): -1.3 °C
- deltaT (Mus musculus [7]): -0.8 °C
- deltaT (Mus musculus [8]): -0.1 °C
- deltaT (Mus musculus [9]): -0.1 °C
- deltaT (Mus musculus [10]): -1.6 °C
- deltaT (Mus musculus [11]): -1.6 °C

From ChEMBL document CHEMBL1833947, “Synthesis and biological investigation of potential atypical antipsychotics with a tropane core. Part 1” (Eur J Med Chem, 2011)
